## scFv variants of Ab-91 (heavy chain) against a SARS-CoV-2 spike peptide

Binding partner: SARS-CoV-2 spike HR2 peptide, sequence PDVDLGDISGINAS.

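The starting antibody came from a phage panning campaign against this peptide. The library (AAYL51) carries one to three amino acid substitutions per variant, with no insertions or deletions. Affinity was read by AlphaSeq, a pooled yeast mating assay with surface-displayed partners. Pairs that bind mate more often; barcode pairs of the diploids are counted by sequencing. Read counts were normalised to the haploid input and turned into Kd by a linear fit to BCL2-family pairs of known affinity, for each replicate. Each pool was mated in three replicate cultures.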

Parent scFv Ab-91: VL joined to VH by a (GGGGS)3 linker. Changes lie in the heavy chain CDRs alone.
VL: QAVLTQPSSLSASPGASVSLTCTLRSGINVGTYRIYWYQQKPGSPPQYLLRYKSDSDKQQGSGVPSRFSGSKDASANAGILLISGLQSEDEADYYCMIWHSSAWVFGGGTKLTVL
VH: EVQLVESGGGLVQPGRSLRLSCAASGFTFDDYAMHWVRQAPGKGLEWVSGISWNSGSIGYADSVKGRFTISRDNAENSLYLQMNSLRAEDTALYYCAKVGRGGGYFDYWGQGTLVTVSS

Changes read parent residue, position, new residue, counted from the first residue of the VH shown.
Scale: log10 of Kd in nM, estimated from mating counts; low values are strong binders.
The mean shown is taken over the replicates in which the pair was detected.
An entry "nd" has no value in the source: the pair was not observed among the diploids in any replicate. This suggests poor binding but is not conclusive.
Nonspecific signal, from three strains lacking the peptide, appeared in 21% of pairings of library AAYL51, centred on 4.54 (5% of these signals below 3.26); values are not corrected for it.

Read-out nd (0 of 3 replicates), from A33L+H35Y+S52W.
Read-out nd (0 of 3 replicates), from A61Q+G104I+Y105F.
Read-out nd (0 of 3 replicates), from A33Q+G103C+Y105S.
Read-out nd (0 of 3 replicates), from Y32R+S57I+D107L.
Read-out 5.21 (1 of 3 replicates), from I51Q+S55C+Y108A.
Read-out nd (0 of 3 replicates), from D30W+H35M+R101G.
Read-out 4.33 (3 of 3 replicates), from S63Q+G100Y+R101V.
Read-out 4.65 (2 of 3 replicates), from T28P+Y32A+S52P.
Read-out nd (0 of 3 replicates), from H35L+G56I+D62H.
Read-out 3.35 (1 of 3 replicates), from I51N+G59I+G100S.
Read-out nd (0 of 3 replicates), from A33Y+M34H+I51K.
Read-out nd (0 of 3 replicates), from G50H+S52C+D107T.
Read-out nd (0 of 3 replicates), from I51H+G56W+Y60H.
Read-out nd (0 of 3 replicates), from G26I+D31E+Y32E.
Read-out 5.51 (1 of 3 replicates), from D30P+G59I+Y108G.
Read-out nd (0 of 3 replicates), from S52K+G59E+S63H.
Read-out 1.00 (3 of 3 replicates), from G102E+G104M+Y108T.
Read-out nd (0 of 3 replicates), from M34A+I58T+V64A.
Read-out 4.20 (2 of 3 replicates), from S55H+G100D+Y105Q.
Read-out nd (0 of 3 replicates), from N54H+R101H+F106Q.
Read-out 4.61 (1 of 3 replicates), from D30Q+H35N+G59L.
Read-out 0.80 (3 of 3 replicates), from T28A+Y108S.
Read-out 4.87 (1 of 3 replicates), from G26K+D31C+S55T.
Read-out 5.45 (3 of 3 replicates), from N54V+G59M+V64Q.
Read-out 3.86 (1 of 3 replicates), from A33D+G59W.
Read-out 3.66 (1 of 3 replicates), from S55C+G103A.
Read-out 2.65 (1 of 3 replicates), from D30G+N54F+S63Y.
Read-out 3.69 (1 of 3 replicates), from F29V+Y32A+A33N.
Read-out nd (0 of 3 replicates), from I51Q+G56W+S57A.
Read-out 5.00 (1 of 3 replicates), from H35F+G100V+G104I.
Read-out nd (0 of 3 replicates), from G26S+F106C+Y108Q.
Read-out 5.31 (3 of 3 replicates), from G103N+Y105W+Y108W.
Read-out 4.39 (2 of 3 replicates), from F29L+G50R+G102H.
Read-out nd (0 of 3 replicates), from G50N+W53S+K65G.
Read-out 5.54 (3 of 3 replicates), from D31K+V64H+K65I.
Read-out nd (0 of 3 replicates), from G26H+S57P+I58V.
Read-out nd (0 of 3 replicates), from N54T+S55L+Y108A.
Read-out nd (0 of 3 replicates), from A33S+D62T+D107K.
Read-out 4.64 (3 of 3 replicates), from Y32L+I58Q+A61M.
Read-out 4.98 (1 of 3 replicates), from F27Q+F29P+M34Y.
Read-out nd (0 of 3 replicates), from F29M+Y60V+V99L.
Read-out 4.84 (1 of 3 replicates), from D30G+A33R+S52H.
Read-out 1.79 (3 of 3 replicates), from Y32N+W53A.

The first 2 entries again:

{"changes": "A33L+H35Y+S52W", "log10 Kd (nM), mean": "nd", "replicates with signal": "0 of 3"}
{"changes": "A61Q+G104I+Y105F", "log10 Kd (nM), mean": "nd", "replicates with signal": "0 of 3"}

From the AlphaSeq antibody data of Engelhart et al. 2022 (doi:10.1038/s41597-022-01779-4), copy in the FLAb collection.